We go through 1 molecule from publication PMC11050087, “Polyphenols from Maackia amurensis Heartwood Protect Neuronal Cells from Oxidative Stress and Prevent Herpetic Infection” (International Journal of Molecular Sciences, 2024).

One data set has as its system HSV-1. Nature of the data set: Virucidal activity, CPE inhibition assay (HSV-1 pretreated with compounds). Type of data set: cell-based, HSV-1 strain L2. Particulars: ratio of CC50 to IC50; virucidal scheme. How it is done:
The antiviral activity of polyphenols from M. amurensis against HSV-1 was assessed using the cytopathic effect inhibition (CPE) assay. To study the inhibitory effect of polyphenolic compounds directly on the HSV-1 virus (direct virucidal activity), the monolayer of Vero cells grown on 96-well plates (1 × 10^4 cells/well) was infected with the virus (100 TCD50/mL), pretreated with different concentrations of polyphenolic compounds.
The HSV-1 strain L2 obtained from N.F. Gamaleya Federal Research Centre for Epidemiology and Microbiology (Moscow, Russia) was grown in Vero cells as previously described.
We determined the direct inhibitory effect of polyphenolic compounds from M. amurensis heartwood on HSV-1 (virucidal effect). We mixed the virus at an infectious dose (100 TCID50/mL) with polyphenolic compounds (from 0.1 to 100 µg/mL) at a ratio of 1:1 (v/v) and incubated for an hour at 37 °C. Then, we infected the monolayer of Vero cells grown on 96-well plates (1 × 10^4 cells/well) with HSV-1 pretreated with the studied compounds. […]
We previously described this method in detail in [22]. […] The viral inhibition rate (IR, %) was calculated according to Equation (1):(1) IR, %=Atv−Acv/Acd−Acv×100, where Atv is the absorbance of cells infected with HSV-1 pretreated with the studied compounds,
We calculated the selectivity index (SI) as the ratio of CC50 to IC50. […]

Data set [1] can be described thus: Cytotoxicity against Vero cells (MTT assay). Particulars: African green monkey. As to the method:
We prepared the stock solutions of the tested compounds (10 mg/mL) in DMSO (Sigma, St. Louis, MO, USA). For the MTT assay and further studies of anti-HSV-1 activity, we diluted the stock solutions with DMEM so that the final concentration of DMSO was 0.5%.
We used MTT assay to determine the cytotoxic effect of the tested compounds against Vero cells. We performed the MTT assay as previously described.
(Tetrazolium assays rely on reduction of a dye to a coloured formazan, in cell work by metabolically active cells.)

SMILES strings stand for the structures. Where “and” joins values, the source holds several entries; their conditions need not be identical. Identical values can stand only once.

For `O=c1c(-c2ccc(O)cc2)coc2cc(O)cc(O)c12` [Compound 2, genistein], in the data set on HSV-1, the SI is 8.0 and 8.0 ± 1.0. In addition, in data set [1], the CC50 (commonly the concentration giving 50% cytotoxicity) is 134 µg/mL and 496 µM.
